According to US7972829B2, “Process for producing transglutaminase” (Ajinomoto Co., Inc., priority 1999, dated 2011):

Each substance was assayed on proline specific peptidase (svPEP) (assay: Substrate specificity of svPEP (cleaving activity on pNA-, βNA-conjugated peptides and peptides)). Conditions: 20 mM sodium phosphate buffer pH 6.5, 37° C., 5 min; AAP-pNA = 100.
Format: biochemical, S. mobaraense IFO13819

| Substance | relative activity (specificity of svPEP for peptide substrate) |
| --- | --- |
| GP-βNA [β-naphtylamido peptide substrate for svPEP] | 0.40% |
| RP-pNA [p-nitroanilide peptide substrate for svPEP] | 0.94% |
| Z-GP-βNA [β-naphtylamido peptide substrate for svPEP] | 0.04% |
| AP-pNA [p-nitroanilide peptide substrate for svPEP] | 0.53% |
| DP-pNA [p-nitroanilide peptide substrate for svPEP] | 0.00% |
